## Measured affinities in a library of Ab-14 heavy chain variants

Source: Li et al. 2023 (doi:10.1038/s41467-023-39022-2), MIT Lincoln Laboratory and A-Alpha Bio; data file from the FLAb repository.

Target peptide (SARS-CoV-2 spike, HR2 region): PDVDLGDISGINAS

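Phage display of a naive human antibody library on the peptide gave the parent. These sequences belong to a second round, designed from the earlier measurements on random variants of the parent. Group labels follow the data file (Ctrl: baseline library sampled from a position-specific scoring matrix, with some repeated check sequences; Rand: our label for a block that the file lists under HC and that is probably the random mutants of the ten best first-round binders; En: ensemble of fine-tuned language models; GP: Gaussian process model; GPLM: also part of the Gaussian process libraries; HC: hill climbing; Gen: genetic algorithm; Gibbs: Gibbs sampling; a sequence that several methods proposed may carry one label only). The assay is AlphaSeq: two haploid yeast populations carry antibody and antigen on their surface. Pairs that bind mate more often; barcode pairs of the diploids are counted by sequencing. Scores were corrected for input abundance and mapped to Kd with protein pairs of known affinity run in the same pool. The assay was run in six technical replicates.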

Each scFv is VH, a 15-residue (Gly4Ser)3 linker, VL, as in the parent Ab-14, and differs from it in the CDRs of the heavy chain only.
VH: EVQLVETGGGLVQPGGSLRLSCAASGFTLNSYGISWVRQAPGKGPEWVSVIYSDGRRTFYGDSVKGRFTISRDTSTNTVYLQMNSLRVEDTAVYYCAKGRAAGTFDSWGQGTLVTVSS
VL: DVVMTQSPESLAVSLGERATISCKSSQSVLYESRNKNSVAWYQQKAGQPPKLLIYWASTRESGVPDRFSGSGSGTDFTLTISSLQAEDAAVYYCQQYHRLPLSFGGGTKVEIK

Changes read parent residue, position, new residue, counted from the first residue of the VH shown. Variants here have at most six changes. Affinities are written as log10 Kd with Kd in nM; a lower number is a better binder. "ND" means that the variant was in the library but no mating with the target was seen in that replicate; the authors take this as a sign of poor binding, and no number exists.

For N30S S53A A102I T104S S107P [Ctrl], the assay gave ND, ND, ND, ND, ND, ND (controls 0 of 18). For R56H G61V A101N A102K G103L S107L [Ctrl], the assay gave ND, ND, ND, ND, ND, ND (controls 0 of 18). Variant S31P F59Q G61I A101C T104H [Rand] showed ND, ND, ND, ND, ND, ND (controls 0 of 18). For T28Q S31E G61A A101N [GP_HC], the assay gave 0.12, 0.09, -0.02, 0.27, -0.35, 0.15 (controls 0 of 18). For N30E R56K G61A S63Q [GPLM_Gibbs], the assay gave 0.96, 1.99, 1.83, ND, ND, 1.63 (controls 0 of 18). For T28Q G61D R100Q A101T [GPLM_Gibbs], the assay gave 0.32, 0.45, 0.35, 0.52, 0.28, 0.18 (controls 0 of 18). Variant T28N S31E R100K S107R [Ctrl] gave ND, ND, ND, 2.00, ND, ND (controls 0 of 18).

With S53F F59A R100Q [Ctrl] the result was ND, ND, ND, ND, 1.63, 0.85 (controls 0 of 18). For T28E S31D R100Q [GPLM_HC], the assay gave 1.83, 0.86, 0.41, 0.77, 0.52, 0.72 (controls 1 of 18). Variant T28D D106W [GP_HC] gave ND, ND, ND, ND, ND, ND (controls 0 of 18). Variant T28D S31Q R56K G61S [GP_HC] gave -0.31, -0.31, -0.86, -0.34, -0.38, 0.14 (controls 0 of 18). Variant T28D S107V [GP_Gen] gave 0.29, -0.75, -0.45, -0.53, -0.66, -0.36 (controls 0 of 18). With S31E A101T S107G [GPLM_Gen] the result was 0.76, -0.19, -0.35, 1.51, 0.46, 0.56 (controls 0 of 18). Variant T28E S53A R100Q S107F [GP_Gen] showed ND, ND, ND, ND, ND, ND (controls 0 of 18).

For N30D T58V S63A [Ctrl], the assay gave ND, 0.83, 0.47, 1.71, 0.44, ND (controls 0 of 18). Variant T28N S31Q [Ctrl] gave 1.26, 0.66, 0.29, 0.25, 0.77, 1.22 (controls 0 of 18). Variant T28D S31E R100K S107T [GP_Gibbs] showed -0.16, -0.32, -0.64, -0.59, -0.59, 0.01 (controls 0 of 18). Variant S31D R56Y [Ctrl] showed 1.57, 1.18, 0.59, ND, 2.28, ND (controls 1 of 18). With S31D G61A A101T D106I [GPLM_HC] the result was ND, ND, ND, ND, ND, ND (controls 0 of 18). For G26M T28S S31E A101T [GPLM_Gen], the assay gave 0.75, 0.35, 0.31, 0.96, 0.65, 0.18 (controls 0 of 18). For S31E G61T A101C T104M [GPLM_HC], the assay gave ND, ND, ND, ND, ND, ND (controls 0 of 18).

For N30E R100Q A101T [GPLM_Gibbs], the assay gave 1.19, 0.85, 0.73, 2.13, 0.86, 0.89 (controls 0 of 18). Variant F27H N30Q A101W A102M [Ctrl] showed ND, ND, ND, ND, ND, ND (controls 0 of 18). Variant F27V [Ctrl] gave ND, ND, ND, ND, ND, ND (controls 1 of 18). Variant S31D F59Q G61S [GPLM_HC] gave 0.72, ND, 1.50, 1.07, 2.01, 2.53 (controls 3 of 18). Variant T28A L29V K65V R100D A102H [Ctrl] showed ND, ND, ND, ND, ND, ND (controls 1 of 18). With G26P T28D G61V R100N [GP_Gen] the result was 0.20, -0.33, -0.07, -0.32, -0.39, -0.17 (controls 1 of 18). Variant S31E G61D A101I [GP_HC] showed -0.93, -0.89, -0.90, -0.45, -0.11, 0.54 (controls 0 of 18).

With G26K N30E S53A [GP_HC] the result was ND, ND, 2.33, 2.80, 1.71, 1.28 (controls 0 of 18). Variant T28P N30L G61S [Ctrl] showed ND, ND, ND, ND, ND, ND (controls 0 of 18). Variant S31E A101E D106I [GPLM_HC] showed ND, ND, ND, ND, ND, ND (controls 0 of 18). With T28S R100Q A101T S107W [GP_Gen] the result was ND, ND, ND, ND, ND, ND (controls 0 of 18). Variant G26H Y60I G61A [Ctrl] gave ND, ND, ND, ND, ND, ND (controls 2 of 18). Variant S31E R100V T104R [Ctrl] gave ND, ND, ND, ND, ND, ND (controls 0 of 18). Variant T28E S63A R100Q A101T [GP_Gibbs] showed 1.28, 0.56, 0.45, -0.01, 0.66, 0.42 (controls 1 of 18).

Variant N30E S53A R100K S107C [GP_Gibbs] showed ND, ND, ND, ND, ND, ND (controls 0 of 18). For S31E G61T A101E S107R [GP_HC], the assay gave 0.52, 0.20, -0.01, -0.20, 0.34, 0.30 (controls 1 of 18). With N30E F59Y [Ctrl] the result was 0.92, 1.74, 1.07, 1.17, 1.49, 1.08 (controls 0 of 18). Variant N30D R56M G61A [GP_Gibbs] showed 1.10, 0.33, 0.47, 0.61, 0.72, 1.13 (controls 0 of 18). With R100E A101N [Ctrl] the result was 1.73, ND, 1.63, ND, 1.21, 1.60 (controls 0 of 18). Variant T28L S31D F59W [GP_HC] showed ND, ND, ND, ND, ND, ND (controls 1 of 18). Variant T28N S31E S53A G61A R100E S107V [En_HC] gave -0.06, -0.40, -0.62, -0.66, -0.41, -0.13 (controls 0 of 18).

Variant T28A G61D R100M A101E [GP_HC] gave 0.87, 0.41, 0.39, 0.55, 0.52, 0.64 (controls 0 of 18). With T28Q G61S A101T [GPLM_Gen] the result was 0.37, 0.31, 0.19, 0.21, 0.58, 0.36 (controls 0 of 18). With L29I F59A G61S [GP_HC] the result was 0.93, 0.26, 0.29, 0.22, -0.05, 0.21 (controls 1 of 18). For T28A S31D R100T [GP_HC], the assay gave 0.09, 0.59, 0.36, 0.28, 0.01, 0.41 (controls 0 of 18). Variant T28P S31E S53A R100Q [GP_HC] gave 0.05, 0.48, 1.22, 0.29, 1.19, 0.18 (controls 0 of 18). Variant R56E G61C A101V [GP_HC] gave 2.38, 2.71, 1.82, 2.21, 2.08, 2.32 (controls 1 of 18). Variant T28D S31M I51G G61L R100Y [Ctrl] showed ND, ND, 2.82, ND, ND, ND (controls 0 of 18).

With S63K R100Q S107Q [Ctrl] the result was 2.59, 1.37, 1.62, 1.78, 1.62, 1.12 (controls 0 of 18). For T28S F59A S63P A101T [GP_Gibbs], the assay gave 0.45, 0.01, -0.09, -0.06, 0.13, 0.00 (controls 0 of 18). Variant T28N Y32F R56L T58V Y60M [Ctrl] showed ND, ND, ND, ND, ND, ND (controls 0 of 18).

The 4 strongest on average among those seen in every replicate, once more:

{"changes": "S31E G61D A101I", "group": "GP_HC", "log10 Kd, replicates": "-0.93, -0.89, -0.90, -0.45, -0.11, 0.54", "empty controls": "0/18"}
{"changes": "T28D S107V", "group": "GP_Gen", "log10 Kd, replicates": "0.29, -0.75, -0.45, -0.53, -0.66, -0.36", "empty controls": "0/18"}
{"changes": "T28N S31E S53A G61A R100E S107V", "group": "En_HC", "log10 Kd, replicates": "-0.06, -0.40, -0.62, -0.66, -0.41, -0.13", "empty controls": "0/18"}
{"changes": "T28D S31E R100K S107T", "group": "GP_Gibbs", "log10 Kd, replicates": "-0.16, -0.32, -0.64, -0.59, -0.59, 0.01", "empty controls": "0/18"}

Nonspecific signal, from three strains lacking the peptide, appeared in 1% of pairings of all heavy chain designs, centred on 2.08 (5% of these signals below 0.84); values are not corrected for it. The control count says in how many pairings with the empty strains this scFv gave a signal. The range of this assay differs from that of the first round, and the authors advise against merging the two. In the paper, a design with two or fewer of six values counts as a poor binder. The parent sequence was in this pool as ten entries: three were never detected, three once, and four in most replicates, with averages from 0.34 to 2.37.